These are literature values, as cited in patent US8871753B2, “Macrocyclic compounds and their use as kinase inhibitors” (Incyte Corporation, priority 2008, dated 2014).

For this data set the following is noted: patients; cited from earlier work.

Regarding “Erbitux: "new targeted anti-cancer agents such as Iressa, Erbitux, and Tarceva has induced acneiform rash"”, the acneiform rash entry is “induced acneiform rash with some patients”.
